A short description of this assay: Inhibition of PI3K.

For the compound `O=c1cc(N2CCOCC2)oc2c(-c3ccccc3)cccc12` [LY-294002], the half-maximal inhibitory concentration (IC50) – broadly, the concentration that inhibits the measured activity by half – was found to be 3 µM.

Values taken from ChEMBL document CHEMBL1156476, “Inhibition of mammalian target of rapamycin signaling by 2-(morpholin-1-yl)pyrimido[2,1-alpha]isoquinolin-4-one” (J Biol Chem, 2007).
